Measurements published in ChEMBL document CHEMBL1140148, “Structure-activity studies on a series of a 2-aminopyrimidine-containing histamine H4 receptor ligands” (J Med Chem, 2008).

Protein sequences, listed by entry. Tags and fused reporters are not part of them. Lines headed by an entry give the natural chain unless they say otherwise; changes in a name come on top.
UniProt Q91ZY1: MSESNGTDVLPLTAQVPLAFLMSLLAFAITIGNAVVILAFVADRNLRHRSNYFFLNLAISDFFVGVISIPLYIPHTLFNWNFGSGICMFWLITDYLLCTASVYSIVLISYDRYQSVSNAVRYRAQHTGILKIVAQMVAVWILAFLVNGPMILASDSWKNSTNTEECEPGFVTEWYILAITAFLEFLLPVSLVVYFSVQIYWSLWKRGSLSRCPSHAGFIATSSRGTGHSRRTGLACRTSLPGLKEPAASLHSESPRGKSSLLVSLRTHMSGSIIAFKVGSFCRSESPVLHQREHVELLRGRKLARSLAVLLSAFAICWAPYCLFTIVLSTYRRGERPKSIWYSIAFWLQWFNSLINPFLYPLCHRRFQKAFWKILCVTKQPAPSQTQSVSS
UniProt Q9Y5N1: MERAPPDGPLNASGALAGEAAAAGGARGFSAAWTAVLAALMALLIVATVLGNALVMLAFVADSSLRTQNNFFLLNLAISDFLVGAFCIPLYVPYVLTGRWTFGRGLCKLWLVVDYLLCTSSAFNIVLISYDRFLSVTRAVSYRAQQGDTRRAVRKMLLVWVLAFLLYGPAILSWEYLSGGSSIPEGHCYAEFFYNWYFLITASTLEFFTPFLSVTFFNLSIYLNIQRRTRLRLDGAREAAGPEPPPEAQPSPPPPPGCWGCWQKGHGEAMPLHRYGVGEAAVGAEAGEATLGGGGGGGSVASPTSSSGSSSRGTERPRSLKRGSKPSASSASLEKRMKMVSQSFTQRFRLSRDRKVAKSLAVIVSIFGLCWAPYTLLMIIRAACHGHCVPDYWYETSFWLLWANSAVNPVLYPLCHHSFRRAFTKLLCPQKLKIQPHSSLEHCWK
UniProt Q9QYN8: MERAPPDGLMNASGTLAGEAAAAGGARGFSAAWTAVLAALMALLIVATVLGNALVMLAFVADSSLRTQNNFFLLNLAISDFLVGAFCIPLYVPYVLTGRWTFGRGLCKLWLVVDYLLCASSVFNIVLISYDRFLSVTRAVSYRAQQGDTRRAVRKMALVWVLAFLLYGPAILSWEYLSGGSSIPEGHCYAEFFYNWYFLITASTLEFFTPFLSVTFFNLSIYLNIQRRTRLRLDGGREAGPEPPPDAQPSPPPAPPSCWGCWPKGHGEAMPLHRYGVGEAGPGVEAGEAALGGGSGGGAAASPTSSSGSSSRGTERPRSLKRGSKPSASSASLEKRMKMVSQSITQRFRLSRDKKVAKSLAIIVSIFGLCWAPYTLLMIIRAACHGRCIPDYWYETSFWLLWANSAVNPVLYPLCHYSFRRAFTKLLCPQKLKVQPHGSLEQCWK

Columns and labels:
[1] = target: Histamine H4 receptor (Rattus norvegicus) (UniProt Q91ZY1); details: HEK293
Histamine H3 receptor [2] = target: Histamine H3 receptor (Homo sapiens, UniProt Q9Y5N1)
Histamine H3 receptor [3] = target: Histamine H3 receptor (Rattus norvegicus, UniProt Q9QYN8); assay: Binding affinity to rat histamine H3 receptor

Row | pKb [1] | pKb (Histamine H3 receptor [2]) | Ki (Histamine H3 receptor [3]) [nM] | SMILES
1 | 6.21 | 6.5 | – | CN1CCN(c2cc(-c3ccc(C#N)cc3)nc(N)n2)CC1
2 | – | – | 1320 | CN1CCN(C(=O)c2cc3cc(Cl)ccc3[nH]2)CC1 [JNJ-7777120]
